Measurements reported in patent US20040049009A1, “Methods for improving the antagonistic/agonistic properties of peptidic antagonists/agonists of the corticotropin-releasing factor receptor (crfr)” (priority 2000, published 2004).
pIC50: −log10 of the molar value. Where two headings read alike, the source gives them in different places.

The chains behind the UniProt entries cited, without tags or fusion partners. Residues count along the entry.
UniProt Q60748, 1-431 isoform Q60748-2: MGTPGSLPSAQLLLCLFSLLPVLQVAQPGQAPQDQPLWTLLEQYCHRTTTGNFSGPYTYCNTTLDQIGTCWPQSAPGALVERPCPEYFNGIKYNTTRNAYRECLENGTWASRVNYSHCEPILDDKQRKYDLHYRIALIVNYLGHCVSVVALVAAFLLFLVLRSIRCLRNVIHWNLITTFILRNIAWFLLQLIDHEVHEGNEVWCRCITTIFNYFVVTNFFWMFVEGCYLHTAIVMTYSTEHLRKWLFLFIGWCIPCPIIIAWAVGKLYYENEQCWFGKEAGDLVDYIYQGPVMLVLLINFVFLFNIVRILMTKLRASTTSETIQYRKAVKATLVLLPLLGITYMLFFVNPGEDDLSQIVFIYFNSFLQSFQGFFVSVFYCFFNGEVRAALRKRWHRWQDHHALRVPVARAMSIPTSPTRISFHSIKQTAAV

How the values were obtained:
rCRFBP = target: T1, rCRFBP (Rattus norvegicus, UniProt P24388); test: Competitive binding to rCRFBP, scintillation proximity assay with [125I-Tyr0]h/rCRF; conditions: 0.1 nM [125I-Tyr0]h/rCRF, n.b. = no specific binding with up to 3 μM inhibitor; for pIC50: read-out: IC50 rCRFBP
T1 construct: made in house; host or cells: HEK-293 cells, stably transfected; culture medium holding the secreted protein was used
T1 sequence (P24388 25-322): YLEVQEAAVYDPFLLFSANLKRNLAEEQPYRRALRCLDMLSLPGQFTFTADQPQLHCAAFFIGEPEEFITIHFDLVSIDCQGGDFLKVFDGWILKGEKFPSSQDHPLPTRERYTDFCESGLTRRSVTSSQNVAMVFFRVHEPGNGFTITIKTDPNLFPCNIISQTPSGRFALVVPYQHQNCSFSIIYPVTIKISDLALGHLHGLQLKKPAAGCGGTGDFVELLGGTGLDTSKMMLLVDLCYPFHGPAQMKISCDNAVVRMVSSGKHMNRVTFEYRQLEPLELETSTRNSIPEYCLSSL

mCRFR2β = target: T2, mCRFR2β (Mus musculus, UniProt Q60748); test: Competitive binding to mCRFR2β, SPA on HEK-293 membrane fractions with [125I-Tyr0]Svg
T2 construct: expressed in transfected cells

[1] = Isoelectric focusing (IEF); format: physicochemical; conditions: determined by isoelectric focussing
[2] = from Brauns et al. (16); cited from earlier work
rCRFR1 = target: T3, rCRFR1 (Rattus norvegicus, UniProt P35353)
T3 sequence (P35353 24-415): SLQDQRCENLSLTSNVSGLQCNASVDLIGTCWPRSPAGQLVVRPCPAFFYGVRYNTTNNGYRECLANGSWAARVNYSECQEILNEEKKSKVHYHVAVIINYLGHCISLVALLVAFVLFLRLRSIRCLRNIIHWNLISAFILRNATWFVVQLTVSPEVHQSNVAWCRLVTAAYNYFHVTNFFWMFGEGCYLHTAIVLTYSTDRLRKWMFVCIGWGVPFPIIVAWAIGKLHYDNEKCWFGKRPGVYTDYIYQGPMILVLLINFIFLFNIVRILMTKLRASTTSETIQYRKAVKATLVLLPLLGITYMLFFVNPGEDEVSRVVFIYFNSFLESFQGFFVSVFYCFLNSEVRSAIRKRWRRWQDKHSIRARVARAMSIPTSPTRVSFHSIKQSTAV

[3] = read-out: IC50 mCRFR2β; 0.05 nM [125I-Tyr0]Svg

Substance	IC50 rCRFBP (rCRFBP)	pIC50 (mCRFR2β; 0.05 nM [125I-Tyr0]Svg; read-out: IC50 mCRFR2β)	Isoelectric point [1]	maximum solubility (cmax) in aCSF [2]	pIC50 (rCRFR1)	pIC50 (rCRFBP)	pIC50 (mCRFR2β; [3])
anti-sauvagine-30 [aSvg-30]	n.b.	9.52	>9.5	>4000^4 μM	6.43	–	–
h/rCRF	–	–	5.9	–	8.80	9.27	7.38
oCRF	–	–	6.4	–	9.00	6.33	6.70
α-helical CRF^9-41 [α-hel-CRF^9-41]	–	–	5.3	1480^4 μM	7.21	9.00	8.37
